## scFv variants of Ab-14 (light chain) against a SARS-CoV-2 spike peptide

All variants were tested on one target, the spike HR2 peptide PDVDLGDISGINAS (SARS-CoV-2).

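The starting antibody came from a phage panning campaign against this peptide. AAYL50 was designed without a model: most single CDR substitutions and a random sample of double and triple ones. The scFvs were displayed on barcoded MATa yeast, the peptide on MATalpha yeast. Pairs that bind mate more often; barcode pairs of the diploids are counted by sequencing. Each replicate has its own calibration line, from reference interactions of the BCL2 family. The assay was run in three technical replicates.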

The variants keep the heavy chain, the linker and the frameworks of Ab-14 (scFv order VH, the linker GGGGSGGGGSGGGGS, VL).
VH: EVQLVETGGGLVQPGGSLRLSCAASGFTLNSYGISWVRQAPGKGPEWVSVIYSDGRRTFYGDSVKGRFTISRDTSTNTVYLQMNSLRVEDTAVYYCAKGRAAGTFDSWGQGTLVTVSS
VL: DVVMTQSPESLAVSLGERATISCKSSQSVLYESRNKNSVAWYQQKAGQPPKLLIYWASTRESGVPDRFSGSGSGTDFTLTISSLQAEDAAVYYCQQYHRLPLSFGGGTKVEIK

Positions count from residue 1 of the parent VL; V29Q puts Q in place of V. All variants listed here change V29 of the VL, counted from its first residue. The Kd shown is the geometric mean over detected replicates; a lower Kd is a better binder. Where no diploid with the target was found in any replicate, the entry reads "nd": below detection, most likely a poor binder, though not proof of it. For reference, the parent read 4.4 nM as the reference entry and 48 nM as a member of this library. Nonspecific signal, from three strains lacking the peptide, appeared in 18% of pairings of library AAYL50, centred on 15 µM (5% of these signals below 970 nM); values are not corrected for it. The control count says in how many pairings with the empty strains this scFv gave a signal.

The variant V29Q+T59W+P101A showed nd (0 of 3 replicates; controls 0 of 9).
The variant Q27N+V29G+V39L showed 820 nM (3 of 3 replicates; controls 0 of 9).
The variant V29T+Y31K+L100N showed nd (0 of 3 replicates; controls 1 of 9).
The variant V29M+K36H+L102K showed 1.2 µM (1 of 3 replicates; controls 0 of 9).
The variant Q27P+V29A+L102D showed nd (0 of 3 replicates; controls 3 of 9).
The variant V29C+E61G+S62P showed 49 nM (3 of 3 replicates; controls 4 of 9).
The variant V29I+R34S+Q96S showed 12 nM (3 of 3 replicates; controls 3 of 9).
The variant V29Y+Q96G+L102N showed 4.5 µM (3 of 3 replicates; controls 3 of 9).
The variant V29F+N37H+Y97M showed 65 µM (2 of 3 replicates; controls 4 of 9).
The variant S25N+S26I+V29C showed 150 µM (2 of 3 replicates; controls 4 of 9).
The variant V29Q+L30R+K36V showed 26 nM (3 of 3 replicates; controls 0 of 9).
The variant S25D+S28E+V29S showed 11 nM (3 of 3 replicates; controls 0 of 9).
The variant V29Y+N37F+E61S showed 19 µM (2 of 3 replicates; controls 1 of 9).
The variant V29W+N37A+S58Q showed 70 nM (2 of 3 replicates; controls 0 of 9).
The variant V29C+T59F+S62F showed 84 nM (3 of 3 replicates; controls 1 of 9).
The variant V29L+Q95C+H98E showed 2.7 µM (2 of 3 replicates; controls 2 of 9).
The variant V29W+Y31D+R60G showed 1.2 mM (1 of 3 replicates; controls 5 of 9).
The variant V29F+V39Y+L102Q showed nd (0 of 3 replicates; controls 1 of 9).
The variant V29K+S58H+S103R showed 5.9 µM (1 of 3 replicates; controls 4 of 9).
The variant K24F+V29N+L102D showed 110 nM (3 of 3 replicates; controls 3 of 9).
The variant S25I+V29H+A57D showed 98 nM (3 of 3 replicates; controls 0 of 9).
The variant V29H+N35H+S38M showed nd (0 of 3 replicates; controls 2 of 9).
The variant V29H+R60M+L102E showed 7.5 µM (1 of 3 replicates; controls 0 of 9).
The variant V29S+L30K+E32P showed 64 nM (3 of 3 replicates; controls 2 of 9).
The variant V29D+R34M+N37P showed 48 nM (3 of 3 replicates; controls 3 of 9).
The variant V29C+V39E showed nd (0 of 3 replicates; controls 2 of 9).
The variant V29M showed 7.1 nM (3 of 3 replicates; controls 2 of 9).
The variant S28C+V29Q+N37D showed 230 nM (3 of 3 replicates; controls 4 of 9).
The variant V29H+S33P+R34L showed 6.6 nM (3 of 3 replicates; controls 3 of 9).
The variant V29W+Y31Q+Y97W showed 14 µM (2 of 3 replicates; controls 4 of 9).
The variant V29R+S33M+Q96W showed 6.0 µM (2 of 3 replicates; controls 0 of 9).
The variant V29A+S33N+R60C showed 32 µM (3 of 3 replicates; controls 6 of 9).
The variant V29G+H98A showed 1.1 nM (3 of 3 replicates; controls 0 of 9).
The variant K24A+V29G+A40D showed nd (0 of 3 replicates; controls 0 of 9).
The variant V29Y+A57G showed 6.6 nM (3 of 3 replicates; controls 2 of 9).
The variant V29F+K36P+R99I showed 6.3 µM (1 of 3 replicates; controls 1 of 9).
The variant V29R+Q95Y+P101R showed 25 µM (1 of 3 replicates; controls 0 of 9).
The variant V29F+W56G+L100Y showed 15 nM (3 of 3 replicates; controls 3 of 9).
The variant S26T+V29T+Q96Y showed nd (0 of 3 replicates; controls 2 of 9).

The 5 strongest on average among those seen in every replicate, once more:

changes	Kd	seen in	empty controls
V29G+H98A	1.1 nM	3 of 3	0 of 9
V29Y+A57G	6.6 nM	3 of 3	2 of 9
V29H+S33P+R34L	6.6 nM	3 of 3	3 of 9
V29M	7.1 nM	3 of 3	2 of 9
S25D+S28E+V29S	11 nM	3 of 3	0 of 9

Values reported by Engelhart et al. 2022, doi:10.1038/s41597-022-01779-4 (FLAb copy).